In publication PMC11272978, “Exploring the central region of amylin and its analogs aggregation: the influence of metal ions and residue substitutions” (Frontiers in Chemistry, 2024):

Key:
[1] = tested on: HeLa cells; experiment: CCK-8 cytotoxicity assay; type: cell-based, human
Procedure: The cytotoxicity of the different peptides (rIAPP-F, hIAPP-F, Pramlintide-F, hIAPP-M, rIAPP-M, Pramlintide-M, and hIAPP) was tested using CCK-8 assay according to the manufacturer’s protocol. Briefly, cervical carcinoma cells (HeLa) were seeded into 96 well plates 8 × 10^3 cells/well in 100 µL DMEM culture medium with 10% FBS and 1% Penicillin-Streptomycin and incubated in a 5% CO2 incubator at 37°C overnight. After that, the cells were incubated with the different peptides prepared in deionized water at concentrations (200, 400, 600, and 800 μg/mL) for 24 h. In addition, the cytotoxicity of hIAPP-F and Pramlintide-M prepared in 0.5 mg/mL Cu(NO3)2 and ZnCl2 solutions at the same concentrations (200, 400, 600, and 800 μg/mL) was also tested. Cells without any treatment were used as a control, and all the conditions were done in triplicates. After 24 h, the media was discarded from the plate, and cells were washed with PBS. Then, 10 µL of CCK-8 and 90 µL of fresh DMEM media were added to each well and incubated for 4 h. The absorbance was measured at OD = […] using a microplate spectrophotometer (BioRad-xMark Microplate Absorbance Spectrophotometer). The ratio of the absorbance at 570/605 was calculated, and the average absorbance value of wells without cells was considered as blank and subtracted from all wells to cancel the background noise. The cells without any treatment were used as a control, and their mean value was considered 100% viable. The other treated cells’ viability was calculated using the formula: Cells viability % = (Corrected Mean Absorbance of treated cells)/(Corrected Mean Absorbance of control) ×100.

[2] = Atomic force microscopy (AFM) of fibrils; type: physicochemical
Procedure: AFM imaging was conducted in a 256-scanning line at a 1 Hz scanning rate by using Bruker’s Nano Dimension Icon (Bruker Nano Inc., Germany). In this procedure, 200–300 μM hIAPP-F and Pramlintide-M were incubated with and without selected metal ions at 25°C for 24 h. All the samples were dissolved in 50 mM phosphate buffer (pH 7.4). The height of peptide aggregates was obtained from its section tool through Nano Scope Analysis 1.5, and the line position with average effects in the images was selected, except peptides alone in fibril form.

[3] = 1D 1H NMR signal intensity over time (aggregation); type: physicochemical; conditions: 310 K, D2O with 20 mM phosphate buffer pH 7.4, 1.5 mM peptide (100 μM for hIAPP-F and Pramlintide-M), over 44 hours
Procedure: All peptides (except hIAPP-F and Pramlintide-M) were dissolved in 99.8% deuterium oxide containing 20 mM of phosphate buffer (pH 7.4). All samples contained 1.5 mM peptide concentration in 600 μL of sample volume except for hIAPP-F and Pramlintide-M, for which the final concentration was 100 μM (both peptides have a high tendency to aggregate at room temperature). The samples’ pH was manually adjusted to 7.4 with 0.1 M NaOD stock solution in 100% D2O. These samples were used for the ^1H and ^13C resonances assignment based on 2D spectra: ^1H-^13C HSQC ([Bodenhausen and Ruben, 1980]) tuned for the aliphatic region, HSQC-TOCSY ([Koz´min´ski and Koz´min´ski, 1999]), ^1H-^1H TOCSY ([Braunschweiler and Ernst, 1983]) mixing time 20 ms and 80 ms, ^1H-^1H ROESY ([Davis, 1985]) mixing time 300 ms and 500 ms. During the hIAPP-F and Pramlintide-M sample preparation, a temperature of 90°C was used to dissolve the peptides. After that, both samples were sonicated during the cooling down process to obtain a homogeneous solution. Spectra were measured immediately after sample preparation. The samples with the addition of metal ions were prepared with the same method as the samples of high tendency aggregation peptides hIAPP-F and Pramlintide-M. […]

[4] = Turbidity on dissolving the peptide; type: physicochemical; conditions: dissolved in 50 mM phosphate buffer to 1 mM; observation; peptides then sonicated for 25 min
Procedure: (§1) Preparation of IAPP fragments solutions and thioflavin-T aggregation assays were performed as described earlier ([Alghrably et al., 2020]). In brief, IAPP fragments were dissolved in 50 mM phosphate buffer to concentrations of 1 mM. Stock solutions were diluted to the desired concentrations, and samples were used fresh each time. It is important to mention that due to the observation of turbidity after dissolving hIAPP-F and Pramlintide-M, both peptides were sonicated for 25 min. All of the aggregation reactions were conducted at 25°C with 40 μM IAPP fragments/mutants (final concentration) in 50 mM phosphate buffer (pH 7.4), and 20 μM thioflavin T in a final volume of 200 μL in each of the 96-well flat-bottom black plate (Corning 3915). We tested the aggregation of each IAPP fragment/mutants alone and with the addition of two metal ions Cu(II) and Zn(II). The metal ions were added to the IAPP fragments in 1:1 ratio. The plate was sealed with transparent film (Duck Brand Crystal Clear Tape, Avon, OH). Thioflavin T fluorescence emission at 528/20 nm (excitation at 485/20) was monitored on a Cytation 5 Multi-Mode Microplate. The measurements were collected by top reading each 5 min after a 3 s shake with an extended gain.

[5] = Thioflavin-T (ThT) aggregation assay; type: physicochemical; conditions: 40 μM peptide, 20 μM ThT, 50 mM phosphate buffer pH 7.4, 25°C
Procedure: as §1

[6] = peptide:Zn 1:1, 200 µM, phosphate buffer pH 7.4, 24 h

fibril morphology (AFM), peptide alone ([2]; 200 µM peptide, phosphate buffer pH 7.4, 25°C, 24 h): helical structure
fibril diameter (AFM), peptide alone ([2]; 200 µM peptide, phosphate buffer pH 7.4, 25°C, 24 h, profile analysis): 6 nm
fibril diameter (AFM) with Zn(II) [2, 6]: 6 nm
fibril morphology (AFM) with Zn(II) [2, 6]: Twisted fibrils
NMR signal intensity over time (signal loss = aggregation), peptide alone [3]: decreased over time
turbidity after dissolving [4]: turbidity
time at which aggregation started (ThT), peptide alone [5]: 7 h
time to reach saturation phase (ThT), peptide alone [5]: 14 h
ThT fluorescence intensity (aggregation) with Cu(II) ([5]; Cu(II) (Cu(NO3)2) 1:1): inhibited the aggregation
time at which aggregation started (ThT) with Zn(II) ([5]; Zn(II) 1:1): 12 h
time to reach saturation phase (ThT) with Zn(II) ([5]; Zn(II) 1:1): 14 h
SMILES: CC[C@H](C)[C@H](NC(=O)[C@@H]1CCCN1C(=O)CNC(=O)[C@H](Cc1ccccc1)NC(=O)[C@H](CC(N)=O)NC(=O)[C@H](CC(N)=O)NC(=O)[C@@H](N)CO)C(=O)N[C@@H](CC(C)C)C(=O)N[C@@H](CO)C(=O)N[C@@H](CO)C(=O)O [Pramlintide-M]
cell viability at 800 μg/mL ([1]; 24 h, 800): 70%
cell viability, peptide-Cu(II) complex ([1]; HeLa cells, peptide 200-800 μg/mL prepared in 0.5 mg/mL Cu(NO3)2, 24 h, CCK-8, n = 3): high cell viability
cell viability / proliferation, peptide with Zn(II) ([1]; HeLa cells, peptide 200-800 μg/mL prepared in 0.5 mg/mL ZnCl2, 24 h, CCK-8, n = 3): high cell proliferation rate
ThT fluorescence intensity (aggregation), peptide alone ([5]; ex 485/20, em 528/20 nm, read each 5 min): slight increase in the fluorescence intensity
ThT fluorescence intensity (aggregation) with Zn(II) ([5]; Zn(II) (ZnCl2) 1:1): slight increase in the fluorescence intensity
